Measured values: ChEMBL document CHEMBL3991945, “TASPASE1 inhibitors and their uses” (2013)

Biological target: T1, Threonine aspartase 1 (Homo sapiens) (UniProt Q9H6P5)
T1 sequence (whole entry): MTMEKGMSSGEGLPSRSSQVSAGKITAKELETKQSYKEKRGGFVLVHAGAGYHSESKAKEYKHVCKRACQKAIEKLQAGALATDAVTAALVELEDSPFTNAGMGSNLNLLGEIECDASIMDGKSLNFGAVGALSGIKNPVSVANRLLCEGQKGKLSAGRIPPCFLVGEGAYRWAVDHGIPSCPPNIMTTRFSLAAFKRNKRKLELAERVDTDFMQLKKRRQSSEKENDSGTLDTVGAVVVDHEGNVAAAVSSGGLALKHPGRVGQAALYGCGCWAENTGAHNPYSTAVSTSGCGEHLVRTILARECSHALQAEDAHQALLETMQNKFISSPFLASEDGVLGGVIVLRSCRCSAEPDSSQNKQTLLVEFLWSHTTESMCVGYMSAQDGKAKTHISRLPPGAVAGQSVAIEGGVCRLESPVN
Settings: 0.1 to 250 uM

- inhibition: inactive
SMILES: CC(C)C[C@H](NC(=O)[C@H](Cc1ccccc1)NC(=O)c1cnccn1)B(O)O

Calls of active or inactive are those of the source. The rule behind the calls is not given here.
